Columns and labels:
[1] = molecular target: Delta-type opioid receptor (Mus musculus, UniProt P32300); assay: Displacement of [3H]DPDPE from delta opioid receptor in mouse whole brain membranes without cerebellum after 1 hr by liquid scintillation counting analysis
[2] = molecular target: Kappa-type opioid receptor (Cavia porcellus, UniProt P41144); assay: Displacement of [3H]U69593 from kappa opioid receptor in guinea pig cerebellum after 1 hr by liquid scintillation counting analysis
Mu-type opioid receptor = Mu-type opioid receptor (Mus musculus, UniProt P42866); assay: Displacement of [3H]DAMGO from mu opioid receptor in mouse whole brain membranes without cerebellum after 1 hr by liquid scintillation counting analysis

The chains behind the UniProt entries cited, without tags or fusion partners. Where a name states a change or a piece, a line headed by the entry shows the natural chain unless it says otherwise.
UniProt P32300, whole entry, looked up: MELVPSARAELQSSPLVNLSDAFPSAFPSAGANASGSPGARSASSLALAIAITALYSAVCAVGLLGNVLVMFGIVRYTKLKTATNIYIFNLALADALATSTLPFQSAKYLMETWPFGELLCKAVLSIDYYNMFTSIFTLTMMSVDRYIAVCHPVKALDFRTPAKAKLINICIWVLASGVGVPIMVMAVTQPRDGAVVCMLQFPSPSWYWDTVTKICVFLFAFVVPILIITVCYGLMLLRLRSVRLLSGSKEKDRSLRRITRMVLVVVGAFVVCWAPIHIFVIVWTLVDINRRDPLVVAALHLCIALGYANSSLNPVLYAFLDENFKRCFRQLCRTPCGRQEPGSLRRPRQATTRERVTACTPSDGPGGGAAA
UniProt P41144: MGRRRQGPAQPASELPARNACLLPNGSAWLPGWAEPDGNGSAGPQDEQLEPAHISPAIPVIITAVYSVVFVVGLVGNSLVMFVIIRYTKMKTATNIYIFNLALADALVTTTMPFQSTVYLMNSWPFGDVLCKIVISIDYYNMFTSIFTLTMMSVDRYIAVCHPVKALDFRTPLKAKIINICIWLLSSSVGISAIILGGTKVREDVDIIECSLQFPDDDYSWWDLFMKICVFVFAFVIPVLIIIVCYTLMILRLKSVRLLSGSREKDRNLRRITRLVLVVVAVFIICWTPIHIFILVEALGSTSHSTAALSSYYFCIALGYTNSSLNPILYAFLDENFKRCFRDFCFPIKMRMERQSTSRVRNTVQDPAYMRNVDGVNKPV
UniProt P42866, whole entry, looked up: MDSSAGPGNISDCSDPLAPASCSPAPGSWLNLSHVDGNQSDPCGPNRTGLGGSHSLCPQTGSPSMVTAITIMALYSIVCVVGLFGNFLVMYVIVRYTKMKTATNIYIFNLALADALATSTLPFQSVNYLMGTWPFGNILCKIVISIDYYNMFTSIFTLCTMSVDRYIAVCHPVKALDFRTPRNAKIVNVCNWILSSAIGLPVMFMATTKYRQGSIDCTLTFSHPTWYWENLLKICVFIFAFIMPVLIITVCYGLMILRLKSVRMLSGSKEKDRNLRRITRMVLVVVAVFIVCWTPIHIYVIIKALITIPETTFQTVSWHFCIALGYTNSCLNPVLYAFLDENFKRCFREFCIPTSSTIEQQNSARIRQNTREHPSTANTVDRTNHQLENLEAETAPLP

In the case of CN(C(=O)Cc1ccccc1)[C@H]1CC[C@@]2(CCCO2)C[C@@H]1N1CCCC1, the Ki [1] is reported as 391 nM, the Ki [2] is reported as 1.37 nM and the Ki (Mu-type opioid receptor) is reported as 548 nM.
